Laboratory results from US10766884B2 (Pfizer Inc., priority 2018, dated 2020).

By UniProt entry, the sequences of proteins in these tests, tags left out.
UniProt Q00534, whole entry: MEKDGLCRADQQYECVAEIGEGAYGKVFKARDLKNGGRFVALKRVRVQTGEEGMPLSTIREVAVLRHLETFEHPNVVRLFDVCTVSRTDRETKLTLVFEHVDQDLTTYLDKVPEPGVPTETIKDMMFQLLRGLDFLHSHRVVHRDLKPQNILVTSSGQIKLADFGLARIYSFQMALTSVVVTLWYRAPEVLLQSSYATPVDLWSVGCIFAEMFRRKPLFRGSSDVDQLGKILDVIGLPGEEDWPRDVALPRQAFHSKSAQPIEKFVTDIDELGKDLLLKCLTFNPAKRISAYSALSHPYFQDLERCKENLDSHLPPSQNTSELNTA

Key:
CDK6 = CDK6 (Homo sapiens (Human), UniProt Q00534); assay: Phospho-Serine 795 Rb ELISA assay in MV4-11 cells; assay type: cell-based; settings: overnight treatment, phospho-Rb S795, read-out: CDK6 pRB S795 ELISA MV4-11 cells IC50
Experimental: JEKO-1 or MV4-11 cells were seeded at 15,000 or 20,000 cells per well, respectively, in 100 μL growth media and allowed to incubate at 37° C. with 5% CO2 overnight. The following day, compounds were serially diluted from a 10 mM top dose for an 11-point 3-fold dilution curve in DMSO. Compounds were intermediately diluted 1:200 into growth media prior to diluting 1:5 on cells for final concentration 10 μM to 0.1 nM in 0.1% DMSO on cells. JEKO-1 and MV4-11 cells were treated were treated overnight, at 37° C. with 5% CO2. Cells were lysed in 100 μL/well CST lysis buffer on ice and transferred to pre-coated and blocked anti-phospho-Ser795 Rb ELISA plates for overnight incubation at 4° C. Plates were washed to remove residual, unbound cellular proteins and total Rb detection antibody added for 90 minutes at 37° C. Following wash to remove unbound total Rb antibody, the HRP tagged antibody was allowed to bind for 30 minutes at 37° C. Following wash to remove unbound HRP antibody, Glo Substrate Reagent was added and incubated protected from light for 5 to 10 minutes. Plates were read in luminescence mode and IC50 values calculated.
CDK4 and CDK6 in vitro Ki (nM) data are provided using calorimetric assays. CDK4 and CDK6 cell-based IC50 (nM) data are provided for CDK4 and CDK6 using phospho-Rb S795 ELISA assays in JEKO-1 and MV4-11 cells.

CDK6/Cyclin D3 = CDK6/Cyclin D3 (Homo sapiens (Human), UniProt Q00534); assay: CDK6/Cyclin D3 mobility shift assay; assay type: biochemical; settings: activated CDK6/Cyclin D3, 3.5 mM ATP, Morrison fit; read-out: CDK6_D3 Ki
Source text: The purpose of the CDK6/Cyclin D3 assay is to evaluate the inhibition (% inhibition, Kiapp and Ki values) in the presence of small molecule inhibitors by using a fluorescence based microfluidic mobility shift assay. CDK6/Cyclin D3 catalyzes the production of ADP from ATP that accompanies the phosphoryl transfer to the substrate peptide 5-FAM-Dyrktide (5-FAM-[…]) (SEQ ID NO:1). The mobility shift assay electrophoretically separates the fluorescently labeled peptides (substrate and phosphorylated product) following the kinase reaction. Both substrate and product are measured and the ratio of these values is used to generate % conversion of substrate to product by the LabChip EZ Reader. Typical reaction solutions contained 2% DMSO (±inhibitor), 2% glycerol, 10 mM MgCl2, 1 mM DTT, 3.5 mM ATP, 0.005% Tween 20 (TW-20), 3 μM 5-FAM-Dyrktide, 4 nM (active sites) activated CDK6/Cyclin D3 in 40 mM HEPES buffer at pH 7.5.
The reaction was stopped after 95 minutes by the addition of 50 μL of 30 mM EDTA. Ki determinations were made from a plot of the fractional velocity as a function of inhibitor concentration fit to the Morrison equation with the enzyme concentration as a variable.
For CDK4 and CDK6 mobility shift assays, see also Morrison, J. F. (1969) Kinetics of the reversible inhibition of enzyme-catalysed reactions by tight-binding inhibitors, Biochimica et biophysica acta 185, 269-286; and Murphy, D. J. (2004) Determination of accurate KI values for tight-binding enzyme inhibitors: an in silico study of experimental error and assay design, Analytical biochemistry 327, 61-67.

Structure (SMILES)	IC50 (CDK6)	Ki (CDK6/Cyclin D3)
CC(O)c1nc2c(F)cc(-c3nc(N[C@@H]4CCN(S(=O)(=O)C(F)F)C[C@H]4O)ncc3Cl)cc2n1C(C)C (stereo partly drawn) [Example F10, (3R,4R)-4-({5-chloro-4-[4-flluoro-2-(1-hydroxyethyl)-1-(propan-2-yl)-1H-benzimidazol-6-yl]pyrimidin-2-yl}amino)-1-(difluoromethanesulfonyl)piperidin-3-ol]	0.153 µM	–
CC(C)n1c([C@@H](C)O)nc2c(F)cc(-c3nc(N[C@@H]4CCN(S(C)(=O)=O)C[C@H]4O)ncc3Cl)cc21 [Example A93, (3R,4R)-4-[(5-chloro-4-{4-fluoro-2-[(1R)-1-hydroxyethyl]-1-(propan-2-yl)-1H-benzimidazol-6-yl}pyrimidin-2-yl)amino]-1-(methanesulfonyl)piperidin-3-ol]	0.0614 µM	0.0044 µM
CC(C)n1c([C@@H](C)O)nc2c(F)cc(-c3nc(N[C@@H]4CCN(S(C)(=O)=O)C[C@@H]4O)ncc3Cl)cc21 (single isomer, unassigned) [Example F11]	2.4 µM	0.0799 µM
CC(O)c1nc2c(F)cc(-c3nc(N[C@@H]4CCN(S(=O)(=O)C(F)F)C[C@H]4O)ncc3Cl)cc2n1C(C)C (stereo partly drawn) [Example F09, (3R,4R)-4-({5-chloro-4-[4-fluoro-2-(1-hydroxyethyl)-1-(propan-2-yl)-1H-benzimidazol-6-yl]pyrimidin-2-yl}amino)-1-(difluoromethanesulfonyl)piperidin-3-ol]	–	0.0055 µM
CC(C)n1c([C@@H](C)O)nc2c(F)cc(-c3nc(N[C@H]4CCN(S(C)(=O)=O)C[C@@H]4O)ncc3Cl)cc21 [Example F13, (3S,4S)-4-[(5-chloro-4-{4-fluoro-2-[(1R)-1-hydroxyethyl]-1-(propan-2-yl)-1H-benzimidazol-6-yl}pyrimidin-2-yl)amino]-1-(methanesulfonyl)piperidin-3-ol]	–	0.0811 µM
